Each block holds one compound with its values, some of them ahead of it.
Assays:
Dvl-3 PDZ [1] = biological target: T1, Dvl-3 PDZ (Homo sapiens, UniProt Q92997); assay: NMR 1H-15N HSQC chemical shift perturbation; type: binding; conditions: average of the three strongest shifting cross peaks
T1 construct: spectra of Dvl-3 PDZ in the absence and presence of the compound; His-tag (cleaved yes); made in house
T1 sequence (Q92997 243-336): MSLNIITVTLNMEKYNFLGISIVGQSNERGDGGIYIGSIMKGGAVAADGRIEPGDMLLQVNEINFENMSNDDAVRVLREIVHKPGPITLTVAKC
Protocol: The results of virtual screening were checked experimentally by comparing 2D ^1H-^15N HSQC (heteronuclear single quantum correlation) spectra of Dvl-3 PDZ in the absence and presence of the compound to elucidate ligand-induced changes of chemical shifts. Chemical shift perturbation differences ( Δ CSP, representing the average of the three strongest shifting cross peaks according to Eq. 1) were evaluated in cases where the residues responding strongest are inside the area defined by Fig. 1a. […] In most cases, the signals of residues S263, V287, and R320 (Fig. 1a) within the conserved binding site were most strongly perturbed (Fig. S2). With the Δ CSP of 0.12 ppm, the isoleucine-derived compound 1 ((2,3-dihydrobenzo[b][1,4]dioxin-6-yl)sulfonyl)-L-isoleucine containing a sulfonamide moiety was detected initially as one of the best “hits” according to chemical shift changes. The sulfonamide is a well-known moiety in drug discovery (Mathvink et al., 1999; Wu et al., 1999; Sleight et al., 1998; O'Brien et al., 2000; Tellew et al., 2003).
Two-dimensional ^1H-^15N HSQC spectra were used to screen a library of 212 compounds designed by the company Enamine for PDZ domains. 50 µM of ^15N -labelled protein samples was prepared in a 20 mM sodium phosphate buffer, containing 50 mM sodium chloride, 0.02 % ( w/v ) NaN3 , at pH 7.4. Stock solutions of small molecules were prepared in DMSO-d6 at a concentration of 160 mM. A ^1H-^15N HSQC spectrum of Dvl PDZ was acquired at 300 K with 5 % DMSO-d6 in the absence of ligand as reference spectrum. Mixtures of 16 compounds were added to ^15N -labelled Dvl PDZ at eightfold molar excess each. The final concentration of DMSO-d6 in the protein–ligand solutions was 5 %. Spectra were acquired with eight scans and 256 points in the indirect dimension. […] The active compound was obtained through successive deconvolution. Experiments were recorded on a Bruker DRX600 spectrometer equipped with a triple-resonance cryoprobe. The preparation of samples was done automatically by a Tecan Genesis RSP 150 pipetting robot. Spectra were analysed using the programs TOPSPIN and SPARKY (Goddard and Kneller, 2003).
50 µM of ^15N -labelled protein samples was prepared in a 20 mM sodium phosphate buffer containing 50 mM sodium chloride, 0.02 % ( w/v ) NaN3 , at pH 7.4. Stock solutions of small molecules were prepared in DMSO-d6 at a concentration of 160 mM. A ^1H-^15N HSQC spectrum of Dvl PDZ was acquired at 300 K with 5 % DMSO-d6 in the absence of ligand as reference spectrum. Mixtures of 16 compounds were added to ^15N -labelled Dvl PDZ at eightfold molar excess each. The final concentration of DMSO-d6 in the protein–ligand solutions was 5 %. Spectra were acquired with eight scans and 256 points in the indirect dimension.
The active compound was obtained through successive deconvolution. Experiments were recorded on a Bruker DRX600 spectrometer equipped with a triple-resonance cryoprobe. The preparation of samples was done automatically by a Tecan Genesis RSP 150 pipetting robot. Spectra were analysed using the programs TOPSPIN and SPARKY.

The chains behind the UniProt entries cited, without tags or fusion partners. Where a name states a change or a piece, a line headed by the entry shows the natural chain unless it says otherwise.
UniProt O14640: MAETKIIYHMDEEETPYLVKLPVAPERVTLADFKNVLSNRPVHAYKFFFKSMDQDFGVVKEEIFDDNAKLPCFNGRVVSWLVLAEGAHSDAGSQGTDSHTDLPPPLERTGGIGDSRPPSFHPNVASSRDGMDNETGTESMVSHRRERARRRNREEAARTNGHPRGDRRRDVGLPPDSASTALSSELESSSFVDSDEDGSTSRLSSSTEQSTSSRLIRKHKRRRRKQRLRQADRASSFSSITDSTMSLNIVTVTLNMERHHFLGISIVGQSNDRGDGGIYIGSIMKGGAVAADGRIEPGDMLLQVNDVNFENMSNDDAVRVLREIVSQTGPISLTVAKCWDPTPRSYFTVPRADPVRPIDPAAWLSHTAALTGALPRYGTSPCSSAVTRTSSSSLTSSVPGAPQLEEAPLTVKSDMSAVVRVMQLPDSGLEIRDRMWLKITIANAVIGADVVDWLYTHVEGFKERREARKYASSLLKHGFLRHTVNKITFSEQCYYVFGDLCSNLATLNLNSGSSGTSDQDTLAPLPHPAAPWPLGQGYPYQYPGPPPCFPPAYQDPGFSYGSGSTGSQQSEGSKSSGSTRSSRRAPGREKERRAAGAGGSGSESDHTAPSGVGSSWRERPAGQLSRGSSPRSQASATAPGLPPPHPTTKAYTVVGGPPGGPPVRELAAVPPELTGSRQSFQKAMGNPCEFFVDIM

HEK293 cells = assay: MTT cell viability assay; type: cell-based; conditions: 24 h
Protocol: Possible cytotoxic effects of compounds 3, 7, 8, 9, and 10 were evaluated in cell viability assays using HEK293 cells (Fig. S4). These compounds were selected due to different substituents at the R 1 , including halogens. […] Compounds 3 and 10 that contained fluorine or methyl group substituents at R 2 , respectively, were the least toxic, while compound 7, containing bromine, was the most toxic. The results from crystallography, modelling studies, and of the cell proliferation assays led us to further investigate compounds 18–21 that contain a methyl group at the R 1 position and different substituents as R 2 . In this way, we aimed to develop both potent and less-toxic cell-permeable inhibitors. […] Compound 18 contains a pyrazole ring which is considered an important biologically active heterocyclic moiety (Lv et al., 2010). […] Their binding constants almost have the same value despite the different substituents (bromine or chlorine) at the pyrrole rings. […] Instead, a π – π stacking interaction with F259 was observed (Fig. S3i).
HEK293 cells were plated on a 96-well plate and treated with different concentrations of Dvl inhibitors. After 24 h treatment, 20 µL of MTT solution (5 mg mL ^-1 ) was added into each well. After 2 h incubation, cell culture medium was replaced with 50 µL DMSO, and the signal of the purple formazan, produced by living cells, was measured by a plate reader.

Dvl-1 PDZ [2] = biological target: T2, Dvl-1 PDZ (Homo sapiens, UniProt O14640, C338S/V250I); assay: Binding constant by NMR titration; set-up: Dvl-1 PDZ domain (O14640, residues 245–338); made in house; host or cells: E. coli BL21 (DE3)
T2 sequence (O14640 245-338 V250I/C338S): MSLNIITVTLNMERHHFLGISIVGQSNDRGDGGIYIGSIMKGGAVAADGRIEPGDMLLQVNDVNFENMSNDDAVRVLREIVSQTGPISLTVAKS

Dvl-1 PDZ [3] = biological target: T2, Dvl-1 PDZ; assay: biochemical
PSD95-3 PDZ = PSD95-3 PDZ (Homo sapiens, UniProt P78352); assay: Selectivity by NMR chemical shift perturbation; conditions: mean of 3 residues
α-1-syntrophin PDZ = biological target: T3, α-1-syntrophin PDZ (Mus musculus, UniProt Q61234); assay: Selectivity by NMR chemical shift perturbation; conditions: a-1-Syn; mean of 3 residues
T3 sequence (Q61234 81-164): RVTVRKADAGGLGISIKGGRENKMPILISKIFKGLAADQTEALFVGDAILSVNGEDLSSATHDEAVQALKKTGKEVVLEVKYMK

PSD95-2 PDZ = PSD95-2 PDZ (Homo sapiens, UniProt P78352); assay: Selectivity by NMR chemical shift perturbation; conditions: mean of 3 residues
Dvl-1 PDZ [4] = biological target: T2, Dvl-1 PDZ; assay: NMR 1H-15N HSQC chemical shift perturbation; type: binding; set-up: Dvl-1 PDZ domain (O14640, residues 245–338); made in house; host or cells: E. coli BL21 (DE3); conditions: mean of 3 residues
PSD95-1 PDZ = PSD95-1 PDZ (Homo sapiens, UniProt P78352); assay: Selectivity by NMR chemical shift perturbation; conditions: mean of 3 residues
Shank-3 PDZ = biological target: T4, Shank-3 PDZ (Mus musculus, UniProt Q4ACU6); assay: Selectivity by NMR chemical shift perturbation; conditions: mean of 3 residues
T4 sequence (Q4ACU6 562-669): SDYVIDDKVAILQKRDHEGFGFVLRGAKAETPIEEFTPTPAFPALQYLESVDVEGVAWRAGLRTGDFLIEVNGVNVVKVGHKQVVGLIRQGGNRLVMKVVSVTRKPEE

AF-6 PDZ = biological target: T5, AF-6 PDZ (Homo sapiens, UniProt P55196); assay: Selectivity by NMR chemical shift perturbation; conditions: mean of 3 residues
T5 sequence (P55196 985-1086 isoform P55196-2): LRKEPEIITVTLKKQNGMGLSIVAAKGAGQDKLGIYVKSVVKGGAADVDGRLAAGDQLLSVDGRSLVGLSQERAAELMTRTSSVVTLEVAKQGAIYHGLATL

Dvl-3 PDZ [5] = biological target: T1, Dvl-3 PDZ; assay: Binding constant by isothermal titration calorimetry (ITC); conditions: one-site binding model, 25 °C, read-out: K D Dvl-3 PDZ
From the text: Titration of ligand into buffer yielded negligible heat.

[6] = by NMR, mean ± SD of at least six residues, read-out: K D Dvl-1 PDZ

SMILES: O=C(O)c1cc(F)ccc1NS(=O)(=O)c1ccc2c(c1)CCC2 [Compound 3]
Chemical shift perturbation ΔCSP (Dvl-3 PDZ [1]): > 0.2 ppm
relative toxicity (in words) (HEK293 cells): least toxic
Kd (Dvl-1 PDZ [2]; [6]): 113 ± 25.9 µM

SMILES: Cc1ccc(S(=O)(=O)Nc2ccc(F)cc2C(=O)O)cc1C [Compound 4]
Chemical shift perturbation ΔCSP (Dvl-3 PDZ [1]): > 0.2 ppm
Kd (Dvl-1 PDZ [2]): 114 ± 9.8 µM

SMILES: O=C(O)c1cc(Br)ccc1NS(=O)(=O)c1ccc2c(c1)CCCC2 [Compound 7]
relative toxicity (in words) (HEK293 cells): most toxic
Kd (Dvl-1 PDZ [2]; [6]): 18.2 ± 2.4 µM

SMILES: O=C(O)c1cc(C(F)(F)F)ccc1NS(=O)(=O)c1ccc2c(c1)CCCC2 [Compound 8, 2-(5,6,7,8-Tetrahydronaphthalene-2-sulfonamido)-5-(trifluoromethyl) benzoic acid]
Kd (Dvl-1 PDZ [3]): 24.5 ± 1.5 µM

SMILES: O=C(O)c1cc(Cl)ccc1NS(=O)(=O)c1ccc2c(c1)CCCC2 [Compound 9]
Kd (Dvl-1 PDZ [2]; [6]): 45.6 ± 4.5 µM

SMILES: Cc1ccc(NS(=O)(=O)c2ccc3c(c2)CCCC3)c(C(=O)O)c1 [Compound 10]
relative toxicity (in words) (HEK293 cells): least toxic
Kd (Dvl-1 PDZ [2]; [6]): 60.5 ± 5.3 µM

SMILES: O=C(O)c1cc(Br)ccc1NS(=O)(=O)c1ccc2ccccc2c1 [Compound 11, 5-Bromo-2-(naphthalene-2-sulfonamido) benzoic acid]
Kd (Dvl-1 PDZ [3]): 120 µM

SMILES: O=C(O)c1cc(Br)ccc1NS(=O)(=O)c1ccc(COc2ccccc2)cc1 [Compound 13, 5-Bromo-2-(4-(phenoxymethyl)phenylsulfonamido)benzoic acid]
Kd (Dvl-1 PDZ [3]): 213 µM

SMILES: Cc1ccc(NS(=O)(=O)c2ccc(CNC(=O)c3n[nH]c4ccccc34)c(Cl)c2)c(C(=O)O)c1 [Compound 18]
Kd (Dvl-1 PDZ [3]): 2.4 ± 0.2 µM
Chemical shift perturbation ΔCSP (PSD95-3 PDZ): 0.05 ppm
Chemical shift perturbation ΔCSP (Dvl-3 PDZ [1]): 0.30 ppm
Chemical shift perturbation ΔCSP (α-1-syntrophin PDZ): 0.08 ppm
Chemical shift perturbation ΔCSP (PSD95-2 PDZ): 0.1 ppm
Chemical shift perturbation ΔCSP (Dvl-1 PDZ [4]): 0.32 ppm
Chemical shift perturbation ΔCSP (PSD95-1 PDZ): 0.05 ppm
Chemical shift perturbation ΔCSP (Shank-3 PDZ): 0.01 ppm
Chemical shift perturbation ΔCSP (AF-6 PDZ): 0.01 ppm

The remaining lines, values ahead:

Kd (Dvl-1 PDZ [3]): 8 ± 0.5 µM
SMILES: Cc1ccc(NS(=O)(=O)c2ccc(CNC(=O)c3c[nH]c4ccccc34)c(Cl)c2)c(C(=O)O)c1 [Compound 19]

Kd (Dvl-1 PDZ [3]): 4.7 ± 0.3 µM
Chemical shift perturbation ΔCSP (PSD95-3 PDZ): 0.06 ppm
Chemical shift perturbation ΔCSP (Dvl-3 PDZ [1]): 0.36 ppm
Chemical shift perturbation ΔCSP (α-1-syntrophin PDZ): 0.07 ppm
Chemical shift perturbation ΔCSP (PSD95-2 PDZ): 0.09 ppm
Chemical shift perturbation ΔCSP (Dvl-1 PDZ [4]): 0.3 ppm
Chemical shift perturbation ΔCSP (PSD95-1 PDZ): 0.06 ppm
Chemical shift perturbation ΔCSP (Shank-3 PDZ): 0.05 ppm
Chemical shift perturbation ΔCSP (AF-6 PDZ): 0.01 ppm
SMILES: Cc1ccc(NS(=O)(=O)c2ccc(CNC(=O)c3cc(Br)c[nH]3)c(Cl)c2)c(C(=O)O)c1 [Compound 20]

Kd (Dvl-1 PDZ [3]): 4.7 ± 0.2 µM
Chemical shift perturbation ΔCSP (PSD95-3 PDZ): 0.1 ppm
Chemical shift perturbation ΔCSP (Dvl-3 PDZ [1]): 0.36 ppm
Chemical shift perturbation ΔCSP (α-1-syntrophin PDZ): 0.08 ppm
Chemical shift perturbation ΔCSP (PSD95-2 PDZ): 0.09 ppm
Chemical shift perturbation ΔCSP (Dvl-1 PDZ [4]): 0.3 ppm
Chemical shift perturbation ΔCSP (PSD95-1 PDZ): 0.07 ppm
Chemical shift perturbation ΔCSP (Shank-3 PDZ): 0.05 ppm
Chemical shift perturbation ΔCSP (AF-6 PDZ): 0.01 ppm
SMILES: Cc1ccc(NS(=O)(=O)c2ccc(CNC(=O)c3cc(Cl)c[nH]3)c(Cl)c2)c(C(=O)O)c1 [Compound 21]

Kd (Dvl-3 PDZ [5]): 8.3 ± 2.5 µM
SMILES: CC1=C(CC(=O)O)c2cc(F)ccc2/C1=C\c1ccc([S+](C)[O-])cc1 (stereo not drawn) [Sulindac, reference compound]

From article PMC10539800, “Small-molecule inhibitors of the PDZ domain of Dishevelled proteins interrupt Wnt signalling” (Magnetic resonance, 2021)
